Assays:
[1] = target: hP2X3 (human purinergic P2X receptor subtype 3) (Homo sapiens (Human), UniProt P56373); test: FLIPR calcium assay, hP2X3 expressed in HEK293 cells; type: cell-based; settings: HEK293 cells expressing hP2X3, agonist BZ-ATP 2.5 μM; class symbols; read-out: P2X3 IC50
[2] = target: hP2X2/3 (heterodimeric receptors formed by human purinergic P2X receptors subtype 2 and subtype 3) (Homo sapiens (Human), UniProt P56373+Q9UBL9); test: FLIPR calcium assay, hP2X2/3 expressed in HEK293 cells (P2X2/3 receptor selectivity); type: cell-based

Sequences of proteins named here, by UniProt entry; tags and fusion partners are left off. A change or cut given only in a name is not applied to a line headed by its entry.
UniProt P56373: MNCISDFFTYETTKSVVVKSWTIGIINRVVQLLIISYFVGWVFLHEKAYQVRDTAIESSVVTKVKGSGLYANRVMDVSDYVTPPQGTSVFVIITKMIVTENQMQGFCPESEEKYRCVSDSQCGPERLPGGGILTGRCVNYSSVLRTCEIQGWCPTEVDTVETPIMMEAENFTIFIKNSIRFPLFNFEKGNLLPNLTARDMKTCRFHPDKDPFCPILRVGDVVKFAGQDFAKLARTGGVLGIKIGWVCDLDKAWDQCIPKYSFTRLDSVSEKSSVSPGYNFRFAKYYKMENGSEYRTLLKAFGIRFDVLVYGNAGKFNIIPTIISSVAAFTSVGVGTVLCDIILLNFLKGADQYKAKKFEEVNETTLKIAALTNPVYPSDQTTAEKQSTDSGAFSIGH
UniProt Q9UBL9: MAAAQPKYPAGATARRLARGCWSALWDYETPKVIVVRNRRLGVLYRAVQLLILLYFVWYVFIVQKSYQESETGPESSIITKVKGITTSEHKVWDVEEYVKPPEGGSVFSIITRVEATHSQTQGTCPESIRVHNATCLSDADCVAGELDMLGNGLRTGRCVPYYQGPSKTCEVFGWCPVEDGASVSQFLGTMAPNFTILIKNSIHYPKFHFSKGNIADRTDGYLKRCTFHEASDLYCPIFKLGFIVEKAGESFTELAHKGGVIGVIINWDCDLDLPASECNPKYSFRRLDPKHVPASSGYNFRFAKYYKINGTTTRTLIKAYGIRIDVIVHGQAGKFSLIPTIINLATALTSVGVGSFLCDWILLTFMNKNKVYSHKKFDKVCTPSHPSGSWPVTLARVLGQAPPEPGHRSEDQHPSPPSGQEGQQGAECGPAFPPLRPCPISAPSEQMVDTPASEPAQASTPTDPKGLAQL

## CC(=O)N1CCO[C@@H](Cc2c(-c3c(F)cc(-n4cccn4)cc3F)nc3cc(Cl)ccn23)C1 [Compound 160, (S)-1-(2-((7-chloro-2-(2,6-difluoro-4-(1H-pyrazol-1-yl)phenyl)imidazo[1,2-a]pyridin-3-yl)methyl)morpholino)ethan-1-one]
[1]
  IC50: ≤ 0.01 µM
[2]
  IC50: > 60 µM
[2]; (IC50 for P2X2/3)/(IC50 for P2X3), class symbols
  Folds of selectivity: A (A: folds of selectivity >1000)

Reference: patent US20240034729A9, “HETEROCYCLIC COMPOUND, INTERMEDIATE, PREPARATION METHOD THEREFOR AND APPLICATION THEREOF” (WUHAN LL SCIENCE AND TECHNOLOGY DEVELOPMENT CO., LTD., priority 2018, published 2024)
